Data reported in US20090325959A1 (priority 2008, published 2009).

Protein sequences, listed by entry. Tags and fused reporters are not part of them. Residues count along the entry.
UniProt O75116, 11-552 limits assumed: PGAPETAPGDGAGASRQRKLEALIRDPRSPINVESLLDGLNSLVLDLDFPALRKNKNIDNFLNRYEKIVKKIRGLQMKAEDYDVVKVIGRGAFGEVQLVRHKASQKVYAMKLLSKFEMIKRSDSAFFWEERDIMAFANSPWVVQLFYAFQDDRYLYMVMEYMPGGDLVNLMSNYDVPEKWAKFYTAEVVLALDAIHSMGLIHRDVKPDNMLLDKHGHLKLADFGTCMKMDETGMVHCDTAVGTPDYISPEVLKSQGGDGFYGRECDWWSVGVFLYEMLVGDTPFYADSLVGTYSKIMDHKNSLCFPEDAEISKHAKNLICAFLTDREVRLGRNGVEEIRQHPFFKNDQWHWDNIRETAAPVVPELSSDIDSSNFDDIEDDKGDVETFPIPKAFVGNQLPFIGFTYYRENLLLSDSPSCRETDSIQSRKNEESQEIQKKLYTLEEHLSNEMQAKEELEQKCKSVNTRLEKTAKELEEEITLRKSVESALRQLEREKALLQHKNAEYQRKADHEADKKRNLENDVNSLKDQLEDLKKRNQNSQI
UniProt Q13464, 17-535 limits assumed: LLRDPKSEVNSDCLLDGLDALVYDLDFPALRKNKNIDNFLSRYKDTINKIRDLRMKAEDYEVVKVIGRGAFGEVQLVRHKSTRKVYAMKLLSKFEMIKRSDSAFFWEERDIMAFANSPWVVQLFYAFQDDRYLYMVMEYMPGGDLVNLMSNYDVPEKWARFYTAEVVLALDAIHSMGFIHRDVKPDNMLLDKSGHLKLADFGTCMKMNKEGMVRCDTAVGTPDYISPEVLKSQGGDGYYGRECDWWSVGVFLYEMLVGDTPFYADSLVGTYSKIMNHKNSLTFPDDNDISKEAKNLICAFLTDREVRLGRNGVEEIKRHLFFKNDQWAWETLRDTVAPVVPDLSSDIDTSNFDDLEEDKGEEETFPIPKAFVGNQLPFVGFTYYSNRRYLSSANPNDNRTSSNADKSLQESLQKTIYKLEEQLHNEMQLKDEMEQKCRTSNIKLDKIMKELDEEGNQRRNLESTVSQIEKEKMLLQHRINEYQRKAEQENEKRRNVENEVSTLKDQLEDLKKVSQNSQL

Experiments:
ROCK2 = biological target: T1, ROCK2 (Homo sapiens, UniProt O75116); assay: Rho kinase inhibition assay (IMAP fluorescence polarization), ROCK2; type: biochemical;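 also: kinase reaction started with 10 µM ATP and run 60 min at room temperature, then phosphorylated substrate captured on IMAP beads for 30 min and fluorescence polarization read in mP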
T1 construct: purchased Upstate/Chemicon 14-451

ROCK1 = biological target: T2, ROCK1 (Homo sapiens, UniProt Q13464); assay: Rho kinase inhibition assay (IMAP fluorescence polarization), ROCK1; type: biochemical; settings: Avg, 10 μM ATP;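 also: kinase reaction run 60 min at room temperature, then phosphorylated substrate captured on IMAP beads for 30 min, with fluorescence polarization read in mP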
T2 construct: purchased Upstate/Chemicon 14-601

[1] = 10 μM ATP, read-out: ROCK2 Ki, Avg

| Compound | pKi (ROCK2; [1]) | pKi (ROCK2; average Ki, read-out: ROCK2 Ki) | pKi (ROCK1) |
| --- | --- | --- | --- |
| Cc1c(CN2CCC[C@H](Nc3ccc4[nH]ncc4c3)C2)cccc1NS(=O)(=O)N(C)C [Compound 1.275] | 7.85 | 7.85 |  |
| Cc1ccc(CN2CC[C@@H](Nc3cccc4cnccc34)C2)cc1NS(=O)(=O)N(C)C [Compound 2.077] | 8.30 | 8.30 |  |
| Clc1ccc(CN2CC[C@@H](Nc3ccc4[nH]ncc4c3)C2)cc1 [Compound 1.241, (R)-N-(1-(4-chlorobenzyl)pyrrolidin-3-yl)-1H-indazol-5-amine] | 7.68 |  |  |
| CN(C)S(=O)(=O)Nc1cccc(CN2CCC[C@H](Nc3ccc4[nH]ncc4c3)C2)c1 [Compound 1.261] | 7.83 | 7.83 |  |
| Cc1c(CN2CC[C@@H](Nc3cccc4cnccc34)C2)cccc1NS(=O)(=O)N(C)C [Compound 2.079] | 8.64 | 8.64 |  |
| NCc1ccc(CN2CCC[C@@H](Nc3ccc4[nH]ncc4c3)C2)cc1 [Compound 1.188, (R)-N-(1-(4-(aminomethyl)benzyl)piperidin-3-yl)-1H-indazol-5-amine] |  |  | 5.46 |
| COc1c(CN2CC[C@@H](Nc3cccc4cnccc34)C2)cccc1NS(=O)(=O)N(C)C [Compound 2.097] | 8.55 | 8.55 |  |

pKi: −log10 of the molar value. Read-outs that look alike come from different tables or passages of the source.
